Data taken from patent US20240254224A1 (UCB, published 2024).
Values joined by “and” are separate entries in the source; they are usually repeats but may differ in a detail not shown here. Equal values may be shown once. Read-outs that look alike come from different tables or passages of the source. Values belong to the binder of their own block, whether it stands above or below them.

Chains of the proteins cited; added tags and fusions are not shown. Chains listed by the source or under a name are the forms on record and can include a tag or linker. Residues count along the entry.
UniProt Q9NP99, 21-234: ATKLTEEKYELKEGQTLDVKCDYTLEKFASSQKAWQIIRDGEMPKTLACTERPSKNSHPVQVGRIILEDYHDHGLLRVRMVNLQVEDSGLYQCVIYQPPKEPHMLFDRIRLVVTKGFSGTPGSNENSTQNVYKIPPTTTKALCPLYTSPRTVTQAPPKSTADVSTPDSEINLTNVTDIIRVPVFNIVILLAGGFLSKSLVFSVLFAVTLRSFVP
UniProt Q9NP99, 21-205 limits assumed: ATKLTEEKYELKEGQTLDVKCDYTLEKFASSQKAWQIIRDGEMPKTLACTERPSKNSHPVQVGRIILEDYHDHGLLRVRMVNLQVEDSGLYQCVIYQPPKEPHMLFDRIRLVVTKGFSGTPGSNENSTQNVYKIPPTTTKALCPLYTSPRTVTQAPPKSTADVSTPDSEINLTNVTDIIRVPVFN
Human TREM1 extracellular domain CID101904 (hTREM1_1-200-Avi-Tev-HKH), one chain, as listed by the source: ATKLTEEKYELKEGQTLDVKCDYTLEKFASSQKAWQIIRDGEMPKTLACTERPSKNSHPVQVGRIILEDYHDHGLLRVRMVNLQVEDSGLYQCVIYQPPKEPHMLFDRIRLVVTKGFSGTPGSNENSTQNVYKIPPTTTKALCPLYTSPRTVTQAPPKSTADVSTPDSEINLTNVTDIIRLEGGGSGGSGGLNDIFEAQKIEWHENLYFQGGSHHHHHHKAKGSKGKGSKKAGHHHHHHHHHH

Tests used:
human TREM1 on cells [1] = biological target: T1, human TREM1 on cells (human, UniProt Q9NP99 21-234); experiment: LigandTracer, AF647-labelled antibody on HEK293 cells expressing human TREM1, 25 C, 1:1 model, N = 3
T1 construct: also called cell surface human TREM1; hTREM1 (HEK293, THP1 TREM1/DAP12 reporter cells, hTREM1/hDAP-12 Flp-In 293 cells, primary monocytes, PBMCs)

human TREM1 on cells [2] = biological target: T1, human TREM1 on cells; experiment: LigandTracer, AF647-labelled antibody on HEK293 cells expressing human TREM1, 25 C, 1:1 model, N = 1
human TREM1 on cells [3] = biological target: T1, human TREM1 on cells; experiment: cell-based or functional assay
[4] = biological target: T2, Human TREM1 extracellular domain CID101904 (hTREM1_1-200-Avi-Tev-HKH) (human); experiment: SPR (Biacore T200 and 8k), 25 C, antibody captured by anti-human Fc, TREM1 ECD as analyte, 1:1 model, n=2
T2 construct: also called Human TREM1 ECD (in house, His tagged); TREM1 ECD analyte
Source text: Buffer blank injections were included to subtract instrument noise and drift.

human TREM1 on cells [5] = biological target: T1, human TREM1 on cells; experiment: cell-based or functional assay; remark: listed apart in the source
human TREM1 on cells [6] = biological target: T1, human TREM1 on cells; experiment: cell-based or functional assay; remark: listed apart in the source
[7] = biological target: T3, human TREM1 (SPR of the humanised grafts, construct not stated) (human, UniProt Q9NP99 21-205, limits assumed); experiment: SPR, human TREM1, IgG4P
human TREM1 on cells [8] = biological target: T1, human TREM1 on cells; experiment: cell-based or functional assay; remark: listed apart in the source
human TREM1 on cells [9] = biological target: T1, human TREM1 on cells; experiment: LigandTracer, HEK293 cells expressing human TREM1, 1:1 model, geometric mean of five
human TREM1 on cells [10] = biological target: T1, human TREM1 on cells; experiment: LigandTracer, AF647-labelled antibody on HEK293 cells expressing human TREM1, 25 C, 1:1 model, N = 2
[11] = biological target: T2, Human TREM1 extracellular domain …; experiment: SPR (Biacore T200), 25 C, species panel, antibody captured by anti-human Fc, 1:1 model, n=1
Protocol: The species tested were human, cynomolgus, rhesus, marmoset, rat, mouse, dog and pig.
TREM1 ECD analyte (in house, His tagged) was injected at 3-fold serial dilutions in HBS-EP+ running buffer (GE Healthcare), top concentrations are shown in Table 15, and three-fold serial dilutions were performed to a bottom concentration of 2 nM. Buffer blank injections were included to subtract instrument noise and drift.

human TREM1 on cells [12] = biological target: T1, human TREM1 on cells; experiment: LigandTracer, AF647-labelled antibody on HEK293 cells expressing human TREM1, 25 C, 1:1 model, N = 4
human TREM1 on cells [13] = biological target: T1, human TREM1 on cells; experiment: cell-based or functional assay; remark: listed apart in the source
human TREM1 on cells [14] = biological target: T1, human TREM1 on cells; experiment: LigandTracer, AF647-labelled antibody on HEK293 cells expressing human TREM1, 25 C, 1:1 model, N = 5
[15] = biological target: T3, human TREM1 (SPR of the humanised …); experiment: SPR, human TREM1, humanised IgG4P graft
human TREM1 on cells [16] = biological target: T1, human TREM1 on cells; experiment: LigandTracer, HEK293 cells expressing human TREM1, 1:1 model, average of five
[17] = biological target: T3, human TREM1 (SPR of the humanised …); experiment: SPR, human TREM1, IgG4P charge mutant
[18] = biological target: T3, human TREM1 (SPR of the humanised …); experiment: SPR, human TREM1
[19] = biological target: T3, human TREM1 (SPR of the humanised …); experiment: SPR, human TREM1; remark: listed apart in the source

- Kd (human TREM1 on cells [1]): 0.0152 nM
- koff (human TREM1 on cells [1]): 3.71e-06 s⁻¹
- kon (human TREM1 on cells [1]): 244000 M⁻¹ s⁻¹
- Kd (human TREM1 on cells [2]): 0.0194 nM
- koff (human TREM1 on cells [2]): 6.8e-06 s⁻¹
- kon (human TREM1 on cells [2]): 350000 M⁻¹ s⁻¹
- pSYK inhibition Emax, hTREM1/hDAP-12 Flp-In 293 cells stimulated with PGN-EC/PGLYRP1 (human TREM1 on cells [3]): 63%
- pSYK inhibition IC50, hTREM1/hDAP-12 Flp-In 293 cells stimulated with PGN-EC/PGLYRP1 (human TREM1 on cells [3]): 1020 pM
- Kd [4]: 0.52 nM
- koff [4]: 9.2e-05 s⁻¹
- kon [4]: 180000 M⁻¹ s⁻¹
- Geomean IC50, inhibition of PGLYRP1/PGN-induced NF-κB luciferase in THP1 TREM1/DAP12 reporter cells (human TREM1 on cells [5]): 64 pM
- Geo IC50, IL-1β release from PGN-BS/PGLYRP1-activated primary human monocytes (n = 2) (human TREM1 on cells [6]): 5 pM
- Geo IC50, IL-6 release from PGN-BS/PGLYRP1-activated primary human monocytes (n = 4) (human TREM1 on cells [6]): 27 pM
- Geo IC50, TNF-α release from PGN-BS/PGLYRP1-activated primary human monocytes (n = 4) (human TREM1 on cells [6]): 15 pM
- Kd [7]: 0.445 nM
- percentage inhibition of CCL-3 release, activated primary human monocytes, antibody 1 nM (human TREM1 on cells [8]): 57%
- percentage inhibition of CCL-20 release, activated primary human monocytes, antibody 1 nM (human TREM1 on cells [8]): 69%
- percentage inhibition of CXCL-9 release, activated primary human monocytes, antibody 1 nM (human TREM1 on cells [8]): 77%
- percentage inhibition of G-CSF release, activated primary human monocytes, antibody 1 nM (human TREM1 on cells [8]): 92%
- percentage inhibition of GM-CSF release, activated primary human monocytes, antibody 1 nM (human TREM1 on cells [8]): 91%
- percentage inhibition of IFN-γ release, activated primary human monocytes, antibody 1 nM (human TREM1 on cells [8]): 59%
- percentage inhibition of IL-1α release, activated primary human monocytes, antibody 1 nM (human TREM1 on cells [8]): 110%
- percentage inhibition of IL-1β release, activated primary human monocytes, antibody 1 nM (human TREM1 on cells [8]): 98%
- percentage inhibition of IL-6 release, activated primary human monocytes, antibody 1 nM (human TREM1 on cells [8]): 64%
- percentage inhibition of IL-10 release, activated primary human monocytes, antibody 1 nM (human TREM1 on cells [8]): 86%
- percentage inhibition of IL-12p40 release, activated primary human monocytes, antibody 1 nM (human TREM1 on cells [8]): 96%
- percentage inhibition of IL-15 release, activated primary human monocytes, antibody 1 nM (human TREM1 on cells [8]): 78%
- percentage inhibition of IL-18 release, activated primary human monocytes, antibody 1 nM (human TREM1 on cells [8]): 87%
- percentage inhibition of IL-27 release, activated primary human monocytes, antibody 1 nM (human TREM1 on cells [8]): 81%
- percentage inhibition of TNF-α release, activated primary human monocytes, antibody 1 nM (human TREM1 on cells [8]): 94%
- percentage inhibition of TNF-β release, activated primary human monocytes, antibody 1 nM (human TREM1 on cells [8]): 65%
- Kd (human TREM1 on cells [9]): 0.0165 nM
- koff (human TREM1 on cells [9]): 5.23e-06 s⁻¹
- kon (human TREM1 on cells [9]): 317000 M⁻¹ s⁻¹
- Kd (human TREM1 on cells [10]): 0.025 nM
- koff (human TREM1 on cells [10]): 8.89e-06 s⁻¹
- kon (human TREM1 on cells [10]): 356000 M⁻¹ s⁻¹
- Kd [11]: 0.54 nM
- koff [11]: 9.1e-05 s⁻¹
- kon [11]: 170000 M⁻¹ s⁻¹
- Kd (human TREM1 on cells [12]): 0.0125 nM
- koff (human TREM1 on cells [12]): 2.97e-06 s⁻¹
- kon (human TREM1 on cells [12]): 238000 M⁻¹ s⁻¹
- Geomean IC50, inhibition of PGLYRP1/PGN-induced NF-κB luciferase in THP1 TREM1/DAP12 reporter cells (human TREM1 on cells [13]): 64 pM
- Kd (human TREM1 on cells [14]): 0.0133 nM
- koff (human TREM1 on cells [14]): 5.88e-06 s⁻¹
- kon (human TREM1 on cells [14]): 443000 M⁻¹ s⁻¹
- Kd [15]: 0.453 nM
- Kd (human TREM1 on cells [16]): 0.0171 nM
- koff (human TREM1 on cells [16]): 5.65e-06 s⁻¹
- kon (human TREM1 on cells [16]): 326000 M⁻¹ s⁻¹
B1: 12172 gL2gH11 hIgG4P (antibody)
heavy: not shown
light: DIQLTQSPSFLSASVGDRVTITCQASQNIGSDLAWYQQKPGKAPKLLIYKAATLASGVPSRFSGSGSGTEFTLTISSLQPEDFATYYCQQYYYGSAGADTDTFGGGTKVEIKRTVAAPSVFIFPPSDEQLKSGTASVVCLLNNFYPREAKVQWKVDNALQSGNSQESVTEQDSKDSTYSLSSTLTLSKADYEKHKVYACEVTHQGLSSPVTKSFNRGEC
notes: Humanised IgG4P, human kappa; also called 12172gL2gH11 IgG4P

- Kd [17]: 0.55 nM
B2: 12172gL11gH11 (antibody, human IgG4 S228P, kappa, V domains shown)
VH: EVQLVESGGGLVQPGGSLRLSCAASGFSLSSYAMTWVRQAPGKGLEWIGIIYAGGSPSYASWAKGRFTISKDNSKNTLYLQMNSLRAEDTAVYYCARGTGDTVYTYFNIWGQGTLVTVSS
VL: DIQLTQSPSFLSASVGDRVTITCQASQNIGSDLAWYQQKPGKAPKLLIYSAATLASGVPSRFSGSGSGTEFTLTISSLQPEDFATYYCQQYYYGSAGADTDTFGGGTKVEIKR

- Kd [18]: 0.519 nM and 0.461 nM
- Geomean IC50, inhibition of PGLYRP1/PGN-induced NF-κB luciferase in THP1 TREM1/DAP12 reporter cells (human TREM1 on cells [5]): 84 pM
- Kd [19]: 0.57 nM
B3: Rabbit Ab 12172 (antibody, V domains shown)
VH: QSLEESGGRLVTPGTPLTLTCTASGFSLSSYAMTWVRQAPGKGLEWIGIIYAGGSPSYASWAKGRFTISKTSTTVDLKMTSPTTEDTATYFCARGTGDTVYTYFNIWGPGTLVTVSS
VL: AVVLTQTASPVSAPVGGTVTIKCQASQNIGSDLAWYQQEPGQPPKLLIYKAATLASGVPSRFKGSGSGTEFTLTISGVQCEDGATYYCQQYYYGSAGADTDTFGGGTEVVVK
